Patent US10947317B2, “NaPi2b-targeted antibody-drug conjugates and methods of use thereof” (Mersana Therapeutics, Inc., priority 2016, dated 2021)

What was measured:
Type in all cases: cell-based
Conditions in all cases: 72 hours or 6 days
[1] = system: OVCAR3 (ovarian adenocarcinoma cell line); experiment: Cytotoxicity assay (CellTiter-Glo), OVCAR-3
Protocol: (§1) OVCAR3 (ovarian adenocarcinoma cell line, not amplified, ATCC, Cat.#HTB-161) was cultured in RPMI medium with 20% FBS. TOV-21G (human ovarian adenocarcinoma cell line, not amplified, ATCC, Cat.#CRL-11730) was cultured in 1:1 mixture of MCDB 105 medium containing a final concentration of 1.5 g/L sodium bicarbonate and Medium 199 containing a final concentration of 2.2 g/L sodium bicarbonate with 15% FBS. IGROV1 (ovarian adenocarcinoma cell line, not amplified) was cultured in RPMI medium with 10% FBS. HCC-4006 (human lung carcinoma cell line, not amplified, ATCC, Cat.#ATCC® CRL-2871™) was cultured in RPMI medium with 10% FBS.
(§2) For the cytotoxicity assay, cells were seeded at a density of 5000 cells per well in 96 well plates and allowed to attach during overnight incubation at 37° C. in the presence of 5% CO2. The media was then replaced with fresh media containing a range of the conjugates Examples 1A, 2C, 3A or AF-HPA (100 nM to 0.1 pM) or Examples 1C, 2C, 3B or AF-HPA (100 nM to 0.1 pM) and the cells were incubated for 72 hours or 6 days at […] in the presence of 5% CO2. Cell survival was measured using CellTiter-Glo® Luminescent Cell Viability Assay (Promega, Madison, Wis.) as described in the kit instructions. Cell viability was normalized to untreated control and expressed as a percentage. The values were plotted and IC50 values calculated with GraphPad Prism software (San Diego, Calif.) using 4 parameter, variable slope, dose response curve fitting algorithm.

[2] = system: TOV-21G (human ovarian adenocarcinoma cell line); experiment: Cytotoxicity assay (CellTiter-Glo), TOV-21G
Protocol: as §1, §2

[3] = system: HCC-4006 (human lung carcinoma cell line); experiment: Cytotoxicity assay (CellTiter-Glo), HCC-4006
Protocol: as §1, §2

[4] = system: IGROV1 (ovarian adenocarcinoma cell line); experiment: Cytotoxicity assay (CellTiter-Glo), IGROV1
Protocol: as §1, §2

Substance | IC50 ([1]; Table VA) | IC50 ([2]; Table VA) | IC50 ([3]; Table VA) | IC50 ([4]; Table VA) | IC50 ([1]; Table VB) | IC50 ([2]; Table VB) | IC50 ([3]; Table VB) | IC50 ([4]; Table VB)
XMT-1535-(EG2-MI-(10 kDa PHF-BA-(AF-HPA-Ala))) [Example 1A] | 0.002 nM | 0.04 nM | 0.13 nM | ~5 nM | – | – | – | –
(10H1.11.4B)-(EG2-MI-(10 kDa PHF-BA-(AF-HPA-Ala))) [Example 2C] | 0.014 nM | 2.03 nM | 2.96 nM | 10.6 nM | 0.11 nM | 41.5 nM | 3.17 nM | 2.73 nM
